The values that follow come from ChEMBL document CHEMBL1144945, “Development of progesterone receptor antagonists from 1,2-dihydrochromeno[3,4-f]quinoline agonist pharmacophore” (Bioorg Med Chem Lett, 2003).

The assay addresses T1, Progesterone receptor (Homo sapiens, UniProt P06401).
T1 sequence (P06401 whole entry): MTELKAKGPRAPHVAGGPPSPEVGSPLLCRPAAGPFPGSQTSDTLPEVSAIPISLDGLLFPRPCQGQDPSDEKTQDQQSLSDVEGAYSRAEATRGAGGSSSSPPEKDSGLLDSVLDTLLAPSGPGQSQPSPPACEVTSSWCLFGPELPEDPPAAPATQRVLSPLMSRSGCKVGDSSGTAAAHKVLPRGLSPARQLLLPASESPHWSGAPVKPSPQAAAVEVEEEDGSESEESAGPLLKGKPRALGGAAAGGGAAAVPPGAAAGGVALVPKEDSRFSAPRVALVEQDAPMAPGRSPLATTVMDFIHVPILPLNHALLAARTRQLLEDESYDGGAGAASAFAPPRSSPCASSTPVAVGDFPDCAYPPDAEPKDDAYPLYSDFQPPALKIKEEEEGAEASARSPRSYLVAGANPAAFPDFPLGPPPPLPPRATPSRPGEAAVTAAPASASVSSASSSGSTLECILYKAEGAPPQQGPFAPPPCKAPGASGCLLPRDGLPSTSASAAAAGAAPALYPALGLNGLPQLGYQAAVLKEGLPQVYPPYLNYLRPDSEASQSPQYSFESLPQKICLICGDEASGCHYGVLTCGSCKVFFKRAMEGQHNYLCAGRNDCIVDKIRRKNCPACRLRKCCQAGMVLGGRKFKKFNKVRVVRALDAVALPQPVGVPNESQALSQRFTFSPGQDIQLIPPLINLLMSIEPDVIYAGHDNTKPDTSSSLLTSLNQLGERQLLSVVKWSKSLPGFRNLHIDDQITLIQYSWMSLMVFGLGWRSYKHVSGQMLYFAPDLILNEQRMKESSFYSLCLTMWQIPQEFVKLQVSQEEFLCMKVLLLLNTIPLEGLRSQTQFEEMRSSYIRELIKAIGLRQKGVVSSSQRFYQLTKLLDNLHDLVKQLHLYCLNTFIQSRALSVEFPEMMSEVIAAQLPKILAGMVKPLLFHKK
Briefly: Effective concentration for human progesterone receptor in T47D human breast cancer cell; not active (<20% efficacy and/or >10 mM potency). As to conditions: cancer cell lines.

For the compound `CC#C[C@]1(O)CC[C@H]2[C@@H]3CCC4=CC(=O)CCC4=C3[C@@H](c3ccc(N(C)C)cc3)C[C@@]21C` [MIFEPRISTONE], the EC50 result is given as “Not Active”.
